These results are taken from US9725465B2, “Biaryl acetamide compounds and methods of use thereof” (Ambit Biosciences Corporation, priority 2013, dated 2017).

The subject of assay [1] is Ba/F3 cells expressing FLT3-ITD-D835V.
In assay [2] the target is FLT3-ITD-F691L (Homo sapiens (Human), UniProt P36888, F691L/INS600HVDFREYEYD). Kind of assay: pFLT3 MSD assay, Ba/F3 FLT3-ITD-F691L. The assay is classed as cell-based. The following applies: Ba/F3 FLT3-ITD-F691L cells, 2 hours, read-out: BaF3-FLT3-ITD-F691L pFlt3 IC50.
For assay [3], the system named is Ba/F3 cells expressing FLT3-ITD.
The target of assay [4] is FLT3-ITD-D835V (Homo sapiens (Human), UniProt P36888, D835V/INS600HVDFREYEYD). Briefly: pFLT3 MSD assay, Ba/F3 FLT3-ITD-D835V. The following applies: Ba/F3 FLT3-ITD-D835V cells, 2 hours, read-out: BaF3-FLT3-ITD-D835V pFlt3 IC50. The assay is classed as cell-based.

In the case of `CN(C)CCCN(C)C(=O)c1cc2cc(-c3ccc(CC(=O)Nc4cc(C(C)(C)C)on4)cc3)cnc2[nH]1` [Example 67, 5-(4-(2-((5-(tert-butyl)isoxazol-3-yl)amino)-2-oxoethyl)phenyl)-N-(3-(dimethylamino)propyl)-N-methyl-1H-pyrrolo[2,3-b]pyridine-2-carboxamide], the concentration for half-maximal inhibition (IC50) in assay [1], in assay [2], in assay [3] and in assay [4] was less than 0.01 µM each time.
Consider `CC(C)(C)c1cc(NC(=O)Cc2ccc(-c3cnc4[nH]c(C(=O)NCCS(C)(=O)=O)cc4c3)cc2)no1` [Example 68, 5-(4-(2-((5-(tert-butyl)isoxazol-3-yl)amino)-2-oxoethyl)phenyl)-N-(2-(methylsulfonyl)ethyl)-1H-pyrrolo[2,3-b]pyridine-2-carboxamide], for which the IC50 in assay [1], in assay [2], in assay [3] and in assay [4] was less than 0.01 µM throughout.
Turning to `CN1CCC(NC(=O)c2cc3cc(-c4ccc(CC(=O)Nc5cc(C(C)(C)C)on5)cc4)cnc3[nH]2)CC1` [Example 69, 5-(4-(2-((5-(tert-butyl)isoxazol-3-yl)amino)-2-oxoethyl)phenyl)-N-(1-methylpiperidin-4-yl)-1H-pyrrolo[2,3-b]pyridine-2-carboxamide], the 50% inhibitory concentration (IC50) in assay [1], in assay [2], in assay [3] and in assay [4] was less than 0.01 µM throughout.
On to `O=C(Cc1ccc(-c2cnc3[nH]c(CO)cc3c2)cc1F)Nc1cc(C2(C(F)(F)F)CC2)on1` [Example 70, 2-(2-fluoro-4-(2-(hydroxymethyl)-1H-pyrrolo[2,3-b]pyridin-5-yl)phenyl)-N-(5-(1-(trifluoromethyl)cyclopropyl)isoxazol-3-yl)acetamide], for which the concentration for half-maximal inhibition (IC50) in assay [1], in assay [2], in assay [3] and in assay [4] was less than 0.01 µM each time.
Consider `COc1cc2nc(-c3ccc(CC(=O)Nc4cc(C5(C(F)(F)F)CC5)on4)c(F)c3)cnc2cc1OCCN1CCOCC1` [Example 79, 2-(2-fluoro-4-(7-methoxy-6-(2-morpholinoethoxy)quinoxalin-2-yl)phenyl)-N-(5-(1-(trifluoromethyl)cyclopropyl)isoxazol-3-yl)acetamide], for which the 50% inhibitory concentration (IC50) in assay [1], in assay [2], in assay [3] and in assay [4] was less than 0.01 µM throughout.
For the compound `COc1cc2ncc(-c3ccc(CC(=O)Nc4cc(C5(C(F)(F)F)CC5)on4)c(F)c3)nc2cc1OCCO` [Example 80, 2-(2-fluoro-4-(7-(2-hydroxyethoxy)-6-methoxyquinoxalin-2-yl)phenyl)-N-(5-(1-(trifluoromethyl)cyclopropyl)isoxazol-3-yl)acetamide], the half-maximal inhibitory concentration (IC50) in assay [1], in assay [2], in assay [3] and in assay [4] was less than 0.01 µM throughout.
As for `COc1cc2cc(-c3ccc(CC(=O)Nc4cc(C5(C(F)(F)F)CC5)on4)c(F)c3)cnc2cc1OCCO` [Example 88, 2-(2-fluoro-4-(7-(2-hydroxyethoxy)-6-methoxyquinolin-3-yl)phenyl)-N-(5-(1-(trifluoromethyl)cyclopropyl)isoxazol-3-yl)acetamide], the IC50 in assay [1], in assay [2], in assay [3] and in assay [4] was less than 0.01 µM in each case.
As to `COc1cc2nc(-c3ccc(CC(=O)Nc4cc(C5(C(F)(F)F)CC5)on4)c(F)c3)cnc2cc1OC1CNC1` [Example 89, 2-(4-(6-(azetidin-3-yloxy)-7-methoxyquinoxalin-2-yl)-2-fluorophenyl)-N-(5-(1-(trifluoromethyl)cyclopropyl)isoxazol-3-yl)acetamide], the IC50 was 0.01 to 0.02 µM in assay [1], 0.02 to 0.05 µM in assay [2], less than 0.01 µM in assay [3] and 0.02 to 0.05 µM in assay [4].
Regarding `COc1cc2nc(-c3ccc(CC(=O)Nc4cc(C5(C(F)(F)F)CC5)on4)c(F)c3)cnc2cc1OC1CN(C)C1` [Example 90, 2-(2-fluoro-4-(7-methoxy-6-((1-methylazetidin-3-yl)oxy)quinoxalin-2-yl)phenyl)-N-(5-(1-(trifluoromethyl)cyclopropyl)isoxazol-3-yl)acetamide], the 50% inhibitory concentration (IC50) in assay [1] is less than 0.01 µM; in assay [2], 0.01 to 0.02 µM; in assay [3], less than 0.01 µM; in assay [4], 0.01 to 0.02 µM.
On to `COc1cc2cc(-c3ccc(CC(=O)Nc4cc(C(C)(C)C(F)(F)F)on4)c(F)c3)cnc2cc1OCCO` [Example 91, 2-(2-fluoro-4-(7-(2-hydroxyethoxy)-6-methoxyquinolin-3-yl)phenyl)-N-(5-(1,1,1-trifluoro-2-methylpropan-2-yl)isoxazol-3-yl)acetamide], for which the IC50 in assay [1], in assay [2], in assay [3] and in assay [4] was less than 0.01 µM each time.
With `CC(C)(C)c1cc(NC(=O)Cc2ccc(-c3cnc4[nH]cc(C5(O)COC5)c4c3)cc2)no1` [Example 97, N-(5-tert-butylisoxazol-3-yl)-2-[4-[3-(3-hydroxyoxetan-3-yl)-1H-pyrrolo[2,3-b]pyridin-5-yl]phenyl]acetamide], the IC50 in assay [1], in assay [2], in assay [3] and in assay [4] was less than 0.01 µM throughout.
Take `O=C(Cc1ccc(-c2cnc3nn4c(c3c2)OC(CO)C4)cc1F)Nc1cc(C2(C(F)(F)F)CC2)on1` (stereo not drawn) [Example 98, 2-[2-fluoro-4-[2-(hydroxy-methyl)-2,3-dihydro-oxazolo[3,4]pyrazolo[1,3-b]pyridin-8-yl]phenyl]-N-[5-[1-(trifluoro-methyl)cyclopropyl]isoxazol-3-yl]acetamide]: the IC50 is greater than 0.05 µM in assay [1], greater than 0.05 µM in assay [2], less than 0.01 µM in assay [3] and greater than 0.05 µM in assay [4].
Turning to `CN1CCN(C(=O)c2cc3cc(-c4ccc(CC(=O)Nc5cc(C(C)(C)C)on5)cc4)cnc3[nH]2)CC1` [Example 99, N-(5-tert-butylisoxazol-3-yl)-2-[4-[2-(4-methylpiperazine-1-carbonyl)-1H-pyrrolo[2,3-b]pyridin-5-yl]phenyl]acetamide], the IC50 was 0.01 to 0.02 µM in assay [1], less than 0.01 µM in assay [2], less than 0.01 µM in assay [3] and less than 0.01 µM in assay [4].
As for `CN(C)CCNC(=O)c1n[nH]c2ncc(-c3ccc(CC(=O)Nc4cc(C(C)(C)C)on4)cc3)cc12` [Example 100, 5-[4-[2-[(5-tert-butylisoxazol-3-yl)amino]-2-oxo-ethyl]phenyl]-N-[2-(dimethylamino)ethyl]-1H-pyrazolo[3,4-b]pyridine-3-carboxamide], the IC50 was greater than 0.05 µM in assay [1], 0.02 to 0.05 µM in assay [2], less than 0.01 µM in assay [3] and 0.02 to 0.05 µM in assay [4].
For the compound `CC(C)(C)c1cc(NC(=O)Cc2ccc(-c3cnc4[nH]nc(-n5nccn5)c4c3)cc2)no1` [Example 101, N-(5-tert-butylisoxazol-3-yl)-2-[4-[3-(triazol-2-yl)-1H-pyrazolo[3,4-b]pyridin-5-yl]phenyl]acetamide], the half-inhibitory concentration (IC50) in assay [1], in assay [2], in assay [3] and in assay [4] was less than 0.01 µM in each case.

As usually defined, the IC50 is the concentration that gives 50% inhibition.
